The results in this text go back to ChEMBL document CHEMBL1151934, “Exploration and optimization of substituted triazolothiadiazines and triazolopyridazines as PDE4 inhibitors” (Bioorg Med Chem Lett, 2009).

Sequences of proteins named here, by UniProt entry; tags and fusion partners are left off. A change or cut given only in a name is not applied to a line headed by its entry.
UniProt Q01064: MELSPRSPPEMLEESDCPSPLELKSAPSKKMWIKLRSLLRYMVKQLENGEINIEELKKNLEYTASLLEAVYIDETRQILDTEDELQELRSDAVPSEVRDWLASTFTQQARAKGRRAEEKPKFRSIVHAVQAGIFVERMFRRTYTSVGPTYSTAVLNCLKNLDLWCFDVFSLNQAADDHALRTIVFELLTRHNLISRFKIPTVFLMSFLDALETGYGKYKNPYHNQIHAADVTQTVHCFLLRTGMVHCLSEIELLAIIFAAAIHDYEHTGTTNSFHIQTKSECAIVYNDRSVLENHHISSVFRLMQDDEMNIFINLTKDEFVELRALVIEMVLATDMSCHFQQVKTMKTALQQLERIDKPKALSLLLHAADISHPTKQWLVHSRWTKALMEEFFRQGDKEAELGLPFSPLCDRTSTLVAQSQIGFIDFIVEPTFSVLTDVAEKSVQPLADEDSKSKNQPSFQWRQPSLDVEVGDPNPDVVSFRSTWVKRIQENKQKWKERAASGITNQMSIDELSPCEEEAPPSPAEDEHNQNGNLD
UniProt Q14432: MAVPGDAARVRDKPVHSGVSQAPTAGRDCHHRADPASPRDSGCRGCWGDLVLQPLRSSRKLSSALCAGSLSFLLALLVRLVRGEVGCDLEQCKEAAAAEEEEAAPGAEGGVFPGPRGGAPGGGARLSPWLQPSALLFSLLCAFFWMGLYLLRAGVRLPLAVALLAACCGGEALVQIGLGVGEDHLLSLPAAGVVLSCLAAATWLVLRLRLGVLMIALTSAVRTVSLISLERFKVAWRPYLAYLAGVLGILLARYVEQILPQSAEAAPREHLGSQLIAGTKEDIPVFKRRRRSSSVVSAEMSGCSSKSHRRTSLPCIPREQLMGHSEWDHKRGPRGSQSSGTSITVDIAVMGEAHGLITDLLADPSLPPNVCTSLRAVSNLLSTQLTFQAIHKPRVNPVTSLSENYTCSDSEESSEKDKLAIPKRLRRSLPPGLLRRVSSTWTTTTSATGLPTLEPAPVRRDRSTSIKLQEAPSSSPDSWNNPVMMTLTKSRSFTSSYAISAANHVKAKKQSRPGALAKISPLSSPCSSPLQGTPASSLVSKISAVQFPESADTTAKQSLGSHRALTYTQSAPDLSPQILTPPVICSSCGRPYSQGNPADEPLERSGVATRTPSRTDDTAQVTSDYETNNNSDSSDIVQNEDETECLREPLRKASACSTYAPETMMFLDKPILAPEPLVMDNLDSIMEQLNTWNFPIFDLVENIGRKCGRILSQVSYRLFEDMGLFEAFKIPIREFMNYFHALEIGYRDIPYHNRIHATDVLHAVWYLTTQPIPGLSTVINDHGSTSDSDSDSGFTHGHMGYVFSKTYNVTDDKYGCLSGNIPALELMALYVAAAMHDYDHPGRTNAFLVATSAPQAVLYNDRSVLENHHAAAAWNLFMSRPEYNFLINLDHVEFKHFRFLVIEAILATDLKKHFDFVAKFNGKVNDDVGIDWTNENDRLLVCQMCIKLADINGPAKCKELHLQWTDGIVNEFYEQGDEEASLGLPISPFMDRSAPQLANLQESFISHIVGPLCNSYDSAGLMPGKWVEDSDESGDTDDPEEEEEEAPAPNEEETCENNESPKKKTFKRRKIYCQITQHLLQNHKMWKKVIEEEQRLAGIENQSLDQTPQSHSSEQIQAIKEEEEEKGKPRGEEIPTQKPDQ
UniProt Q13370: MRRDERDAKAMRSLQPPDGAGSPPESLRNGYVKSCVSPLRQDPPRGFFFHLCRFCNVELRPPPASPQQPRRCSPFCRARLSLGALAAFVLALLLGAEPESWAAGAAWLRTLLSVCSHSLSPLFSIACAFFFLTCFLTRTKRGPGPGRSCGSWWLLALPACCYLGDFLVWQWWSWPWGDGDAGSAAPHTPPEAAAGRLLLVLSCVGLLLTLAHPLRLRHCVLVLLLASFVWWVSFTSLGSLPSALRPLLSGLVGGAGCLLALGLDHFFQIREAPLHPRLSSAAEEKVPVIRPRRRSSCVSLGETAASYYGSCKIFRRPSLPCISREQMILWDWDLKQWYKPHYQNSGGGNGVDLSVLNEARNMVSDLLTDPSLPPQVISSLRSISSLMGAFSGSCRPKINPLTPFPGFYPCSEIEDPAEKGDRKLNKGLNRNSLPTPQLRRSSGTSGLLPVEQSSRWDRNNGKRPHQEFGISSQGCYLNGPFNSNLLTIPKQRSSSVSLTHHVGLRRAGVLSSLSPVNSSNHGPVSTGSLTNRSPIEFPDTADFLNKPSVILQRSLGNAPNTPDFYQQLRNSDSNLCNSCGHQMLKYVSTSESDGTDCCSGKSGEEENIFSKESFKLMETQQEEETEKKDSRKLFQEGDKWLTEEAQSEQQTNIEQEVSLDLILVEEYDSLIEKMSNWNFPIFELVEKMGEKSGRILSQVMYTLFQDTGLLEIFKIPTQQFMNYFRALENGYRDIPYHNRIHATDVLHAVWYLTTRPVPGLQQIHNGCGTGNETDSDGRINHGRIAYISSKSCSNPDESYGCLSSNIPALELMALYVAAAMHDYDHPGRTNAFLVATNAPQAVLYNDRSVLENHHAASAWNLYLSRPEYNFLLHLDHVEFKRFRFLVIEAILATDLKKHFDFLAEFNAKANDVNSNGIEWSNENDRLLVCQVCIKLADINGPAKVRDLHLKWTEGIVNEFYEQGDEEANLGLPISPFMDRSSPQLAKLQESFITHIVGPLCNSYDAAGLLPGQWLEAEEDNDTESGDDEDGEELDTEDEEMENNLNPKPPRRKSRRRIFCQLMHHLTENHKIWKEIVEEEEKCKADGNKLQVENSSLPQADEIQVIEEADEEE

The target in test [1] is Dual specificity calcium/calmodulin-dependent 3',5'-cyclic nucleotide phosphodiesterase 1B (Homo sapiens, UniProt Q01064).
Test [2] is described as follows: Inhibition of PDE4A1A.
The target of test [3] is cGMP-inhibited 3',5'-cyclic phosphodiesterase 3A (Homo sapiens, UniProt Q14432).
Test [4] concerns the target cGMP-inhibited 3',5'-cyclic phosphodiesterase 3B (Homo sapiens, UniProt Q13370).

The term IC50 denotes the point on the concentration scale where inhibition reaches its midpoint. For the compound `COc1ccc(OC)c(-c2nnc3n2N=C(c2ccc(OC)c(OC)c2)CS3)c1`, the IC50 entry in test [1] was “Not Active”.
In test [2], `COc1ccc(OC)c(-c2nnc3n2N=C(c2ccc(OC)c(O[C@@H]4CCOC4)c2)CS3)c1` displayed an IC50 of 0.26 nM.
Turning to `COc1ccc(C2CNC(=O)C2)cc1OC1CCCC1` (centres undefined) [ROLIPRAM], the IC50 entry in test [3] and in test [4] was “Not Active” throughout.
